Target: delta opioid receptor (NG108-15 cell membranes) (Mus musculus, UniProt P32300)
Assay: [35S]GTPγS Binding Assay in NG108-15 Cell Membranes (Delta Opioid)
Conditions: relative efficacy

SMILES	delta GTPγS Rel Eff
NC(=O)c1ccc2c(c1)Oc1ccccc1N2C1CCNCC1	0.81
N#Cc1ccc2c(c1)Oc1ccccc1N2C1CCNCC1	0.45

— patent publication US7432257B2, “Piperdinyl-phenoxazine and phenothiazine derivatives as δ-opioid modulators” (dated 2008)
